These are literature values, as cited in US20100221823A1, “METHOD FOR CULTURING MAMMALIAN CELLS TO IMPROVE RECOMBINANT PROTEIN PRODUCTION” (Amgen Inc., priority 2007, published 2010).

For data set [1] the following is noted: spermine 2 mM; cited from earlier work.
Data set [2] relates to Human-human hybridoma HB4C5 cells. To be noted: spermine 2.4 mM or higher; cited from earlier work.

On to `Cl.Cl.Cl.Cl.NCCCNCCCCNCCCN` [spermine, spermine tetrahydrochloride], for which, in data set [1], the “Effect of high exogenous concentration on cells” value is given as “inhibition of cell growth and/or result in cell death”. In data set [2], the Cell growth entry is “suppressed cell growth” and the “Time after which viability declined” value is recorded as 3 days.
